Experiments:
rat gastric mucosa = settings: male, Wistar, in vivo, po, 4 days
Method: The animals entered in the trial, randomized and divided into groups of 6 rats each, were fasted for 16 h prior to treatment, with access to water ad libitum. They were re-fed 1 h after drug administration. The compound 2-methoxyphenyl-1-methyl-5p-methylbenzoyl-pyrrol-2-acetamido acetate and the other reference NSAIDs, suspended in 1% carboxymethylcellulose (CMC) solution, were orally administered by gastric gavage in a volume of 6ml/kg for four consecutive days. Controls received the vehicle in the same way as the treated animals. 4 h after the last administration the animals were killed by ether overdose; the stomachs were removed, rinsed with 10 ml of saline and immersed in 1% formalin. They were later opened along the greater curvature and the mucosa examined for lesions.
The seriousness of the lesion was quantified according to a scale graduated from 1 to 3 according to the size of the lesions: 1= ulcer < 1mm; 2= ulcer 1-2mm; 3= ulcer > 2mm. […] The gastric lesions were evaluated by two independent investigators under blind conditions according to Main & Whittle method (BJ Pharmac 1975:53; p. 217-224).
Since the average daily dose in man (for the anti-inflammatory activity) is 600 mg, the comparative efficacious dose in the rat is in the ratio of 12:1. […] To evaluate the "ratio to rat dosage" the ID50 has been determined using the carrageenin-induced oedema as inflammatory test. […]

[1] = system: carrageenin-induced paw oedema; test: Determination of ID50, carrageenin-induced paw oedema; type: in vivo, rat; settings: five times the oral ID50 for oedema inhibition, 2 h after carrageenin
Method: ID50, relative to the products under examination (considered in table 1), has been evaluated using the anti-inflammatory response to carrageenin-induced paw oedema (according to Wong et al, J Pharmacol Exp, 1973:1855; pages 127-138). The products, suspended in 1% CMC, were administered orally in a total volume of 5 ml/rat. 1 h later, 0.1 ml of 1% carrageenin sterile solution was injected into the hind subplantar aponeurosis. Volume of the paw was measured immediately prior to injection of the phlogogen and 2 h thereafter, by means of a plethysmograph. The percentage of inhibition of oedema was calculated as follows: 1 - ΔV treated/ΔV control x 100 [formula] where ΔV = final V - initial V.
Three doses have been used for each NSAID and the ID50, which indicates the quantity in mg/kg inhibiting oedema by 50%, has been determined.

Question: Which Gastrolesive index (rat gastric mucosa) does the source give for `CS(=O)(=O)Nc1ccc([N+](=O)[O-])cc1Oc1ccccc1` [Nimesulide, nimesulide] here?
Answer: Its Gastrolesive index is 21.3.

Question: And the “Ratio to rat dosage (mg/kg) (ID50 mg/kg x5)” value [1]?
Answer: Its value is 28.5 mg/kg.
